Source: paper PMC5659294 (Pharmacogenetics and genomics, 2017)

Format: in vivo, human
Conditions: secondary screen

Substance: 4-hydroxy-tamoxifen [OH-tamoxifen]
- Association of season with OH-tamoxifen concentration, β (fall compared to winter): −0.21
- Association of weight with OH-tamoxifen concentration, β (greater weight): −0.0038
- Association of season with OH-tamoxifen concentration, β (summer compared to winter): −0.13

Like-named read-outs stand apart in the source and are kept apart here.
